Protein sequences, listed by entry. Tags and fused reporters are not part of them.
UniProt P42336, whole entry, looked up: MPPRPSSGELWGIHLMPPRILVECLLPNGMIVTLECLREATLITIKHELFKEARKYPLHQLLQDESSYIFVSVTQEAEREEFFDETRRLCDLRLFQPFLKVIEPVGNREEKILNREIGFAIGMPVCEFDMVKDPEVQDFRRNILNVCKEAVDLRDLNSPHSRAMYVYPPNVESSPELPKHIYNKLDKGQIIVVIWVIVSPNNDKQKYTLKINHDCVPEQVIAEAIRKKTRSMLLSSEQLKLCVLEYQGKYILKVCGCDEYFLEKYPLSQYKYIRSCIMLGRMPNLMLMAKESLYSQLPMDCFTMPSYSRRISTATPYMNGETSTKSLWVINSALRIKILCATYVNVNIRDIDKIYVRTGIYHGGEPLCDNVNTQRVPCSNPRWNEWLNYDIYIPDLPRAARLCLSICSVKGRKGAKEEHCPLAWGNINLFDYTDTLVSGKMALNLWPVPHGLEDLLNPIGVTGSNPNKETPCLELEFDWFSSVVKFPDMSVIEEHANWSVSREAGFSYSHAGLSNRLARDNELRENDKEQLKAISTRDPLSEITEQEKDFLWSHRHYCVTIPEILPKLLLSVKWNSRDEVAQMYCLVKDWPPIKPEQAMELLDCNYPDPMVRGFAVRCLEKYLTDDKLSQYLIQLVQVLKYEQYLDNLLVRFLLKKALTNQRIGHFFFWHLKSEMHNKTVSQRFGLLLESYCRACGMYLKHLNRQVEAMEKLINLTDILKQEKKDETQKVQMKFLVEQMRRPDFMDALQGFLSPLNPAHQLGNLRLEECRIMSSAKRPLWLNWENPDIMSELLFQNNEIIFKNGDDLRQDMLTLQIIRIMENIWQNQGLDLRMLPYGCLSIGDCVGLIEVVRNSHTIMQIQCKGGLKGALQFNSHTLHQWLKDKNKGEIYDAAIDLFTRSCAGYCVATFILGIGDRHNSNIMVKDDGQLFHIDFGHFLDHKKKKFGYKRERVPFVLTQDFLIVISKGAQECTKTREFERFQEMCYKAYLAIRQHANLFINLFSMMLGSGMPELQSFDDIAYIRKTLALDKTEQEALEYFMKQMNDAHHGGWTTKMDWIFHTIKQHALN

According to patent US9206201B2, “Boronic acid bearing liphagane compounds as inhibitors of P13K-α and/or β” (COUNCIL OF SCIENTIFIC & INDUSTRIAL RESEARCH, priority 2012, dated 2015):

Tests used:
[1] = target: T1, PI3Kα (Homo sapiens (Human), UniProt P42336); assay: PI3K inhibition assay (PI3 Kinase activity/inhibitor assay kit), PI3Kα; type: biochemical; conditions: read-out: IC50 against PI3Kα
Experimental: PI3K inhibition assay (PI3K Assay (Emmanuelle M, Huang […] et al. Targeting Protein Translation in Human Non-Small Cell Lung Cancer via Combined MEK and Mammalian Target of Rapamycin Suppression. Cancer Res 67:(23). (2007).) was carried out by PI3 Kinase activity/inhibitor assay kit, where PI3 kinase reaction was set up in Glutathione-coated strips/plate for inhibitor reaction. Kinase and inhibitors were pre-incubated for 10 minutes prior to the addition of PIP2 substrate. 5 μL of 5× kinase reaction buffer were added in each well followed by the further addition of 5 μL/well of PIP2 substrate. Then distilled H2O was added to each well so as to make up a final volume of 25 μL/well. Incubation was done at rt for 1 hour which was followed by washing the wells 3 times with 200 μL of 1×TBST per well and then 2 times with 200 μL of IX TBS per well. Then 100 μL of the Substrate TMB per well was added and then to keep for colour development in the dark for 5-20 minutes. However, appearance of the blue color to avoid over-development were monitored. 100 μL of the stop solution per well was used to stop the reaction. Readings were recorded at 450 nm. The IC50 value of a drug measures the effectiveness of a compound in inhibiting biological or biochemical function. […]

[2] = target: T1, PI3Kα; conditions: literature; cited from earlier work

Liphagal
IC50 [1]: 108 nM
potency against PI3K-α relative to PI3K-γ [2]: ~10 fold
